From publication PMC2775099 (Bioorganic & medicinal chemistry, 2009)

Target: rat nNOS (Rattus norvegicus, UniProt P29476)
Conditions: amine in the chain replaced with ether or amide

With `Cc1cc(N)nc(CC2CNCC2OCC(=O)NCCc2cccc(F)c2)c1` (stereo not shown) [compound 5, 2-(4-((6-Amino-4-methylpyridin-2-yl)-methyl)-pyrrolidin-3-yloxy)-N-(3-fluorophenethyl)-acetamide] the “potency with nNOS relative to 1” value was “significant loss in potency”.
